These results are taken from patent publication US9169290B2, “Peptides and their use” (priority 2007, dated 2015).

The test system of test [1] is C. albicans. In kind it is cell-based, Candida albicans. How it is done:
(§1) Broth Dilution Antifungal Susceptibility Testing
(§2) The sensitivity of relevant fungal strains to the peptides was determined using Clinical Laboratory Standard Institute (CLSI; formerly NCCLS) Approved Standards.

Test [2] deals with C. krusei. In kind it is cell-based, Candida krusei. How it is done: as §1, §2
Test [3] relates to Trichophyton rubrum. In kind it is cell-based. Here is the method:
as §1, §2

Test [4] concerns Malasezzia furfur. In kind it is cell-based. Here is the method:
as §1, §2

≈ marks a conversion by molar mass, not a printed value. Bounds are passed on as bounds.

Take `NCCCC[C@H](NC(=O)[C@H](CCCCN)NC(=O)[C@@H](N)CCCCN)C(=O)O` [NP342, KKK]: in test [1], the MIC (commonly the smallest concentration in the dilution series that meets the test's criterion for growth inhibition) was above 2048 µM.
With `N=C(N)NCCC[C@H](NC(=O)[C@H](CCCNC(=N)N)NC(=O)[C@H](CCCNC(=N)N)NC(=O)[C@H](CCCNC(=N)N)NC(=O)[C@H](CCCNC(=N)N)NC(=O)[C@H](CCCNC(=N)N)NC(=O)[C@H](CCCNC(=N)N)NC(=O)[C@H](CCCNC(=N)N)NC(=O)[C@H](CCCNC(=N)N)NC(=O)[C@H](CCCNC(=N)N)NC(=O)[C@H](CCCNC(=N)N)NC(=O)[C@H](CCCNC(=N)N)NC(=O)[C@H](CCCNC(=N)N)NC(=O)[C@H](CCCNC(=N)N)NC(=O)[C@@H](N)CCCNC(=N)N)C(=O)O` [NP352, RRRRRRRRRRRRRRR], the MIC in test [2] stood at 32 µM (≈ 75.5 µg/mL); in test [1], 4 µM (≈ 9.44 µg/mL).
On to `N=C(N)NCCC[C@H](NC(=O)[C@H](CCCNC(=N)N)NC(=O)[C@H](CCCNC(=N)N)NC(=O)[C@H](CCCNC(=N)N)NC(=O)[C@H](CCCNC(=N)N)NC(=O)[C@H](CCCNC(=N)N)NC(=O)[C@H](CCCNC(=N)N)NC(=O)[C@H](CCCNC(=N)N)NC(=O)[C@H](CCCNC(=N)N)NC(=O)[C@H](CCCNC(=N)N)NC(=O)[C@H](CCCNC(=N)N)NC(=O)[C@H](CCCNC(=N)N)NC(=O)[C@H](CCCNC(=N)N)NC(=O)[C@H](CCCNC(=N)N)NC(=O)[C@@H](N)CCCNC(=N)N)C(=O)O` [NP319, RRRRRRRRRRRRRRR], for which the MIC in test [3] is above 2 µM; in test [4], 256 µM (≈ 604 µg/mL); in test [2], below 16 µM. Besides, the “MIC, Candida krusei NCPF3953” value in test [2] was 8 µM (≈ 18.9 µg/mL). Further, in test [1], the “MIC, Candida albicans NCTC3179” value was found to be 4 µM (≈ 9.44 µg/mL).
